# Measurements as given in PubChem BioAssay (NCATS).
# Sequences of proteins named here, by UniProt entry; tags and fusion partners are left off.
# UniProt Q99828, whole entry: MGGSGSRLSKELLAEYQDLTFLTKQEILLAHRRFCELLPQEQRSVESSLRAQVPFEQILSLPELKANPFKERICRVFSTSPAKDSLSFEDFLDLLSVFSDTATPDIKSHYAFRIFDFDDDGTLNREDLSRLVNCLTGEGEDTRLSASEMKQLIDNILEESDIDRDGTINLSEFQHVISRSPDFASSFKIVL
# UniProt O94782, whole entry, looked up: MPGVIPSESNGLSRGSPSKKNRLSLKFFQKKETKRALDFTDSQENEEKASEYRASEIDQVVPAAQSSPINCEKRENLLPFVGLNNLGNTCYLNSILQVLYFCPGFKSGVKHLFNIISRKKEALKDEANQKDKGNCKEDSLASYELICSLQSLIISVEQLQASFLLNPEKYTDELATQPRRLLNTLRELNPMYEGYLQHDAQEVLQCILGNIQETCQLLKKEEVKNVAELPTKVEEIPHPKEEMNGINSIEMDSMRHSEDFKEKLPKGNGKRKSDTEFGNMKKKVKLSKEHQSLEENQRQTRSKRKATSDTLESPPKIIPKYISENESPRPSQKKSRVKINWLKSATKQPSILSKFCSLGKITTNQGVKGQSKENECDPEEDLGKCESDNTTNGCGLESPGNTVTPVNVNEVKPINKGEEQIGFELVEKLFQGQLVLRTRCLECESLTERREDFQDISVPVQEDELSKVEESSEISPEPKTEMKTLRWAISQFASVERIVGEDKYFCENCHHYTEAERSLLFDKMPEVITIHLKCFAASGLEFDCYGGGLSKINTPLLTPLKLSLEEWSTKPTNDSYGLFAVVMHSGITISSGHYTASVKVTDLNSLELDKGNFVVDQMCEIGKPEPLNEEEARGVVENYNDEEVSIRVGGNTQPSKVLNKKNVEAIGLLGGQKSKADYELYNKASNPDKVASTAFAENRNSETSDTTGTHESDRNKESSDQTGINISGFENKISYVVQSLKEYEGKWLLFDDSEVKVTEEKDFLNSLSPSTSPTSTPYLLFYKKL
# UniProt P08659, whole entry: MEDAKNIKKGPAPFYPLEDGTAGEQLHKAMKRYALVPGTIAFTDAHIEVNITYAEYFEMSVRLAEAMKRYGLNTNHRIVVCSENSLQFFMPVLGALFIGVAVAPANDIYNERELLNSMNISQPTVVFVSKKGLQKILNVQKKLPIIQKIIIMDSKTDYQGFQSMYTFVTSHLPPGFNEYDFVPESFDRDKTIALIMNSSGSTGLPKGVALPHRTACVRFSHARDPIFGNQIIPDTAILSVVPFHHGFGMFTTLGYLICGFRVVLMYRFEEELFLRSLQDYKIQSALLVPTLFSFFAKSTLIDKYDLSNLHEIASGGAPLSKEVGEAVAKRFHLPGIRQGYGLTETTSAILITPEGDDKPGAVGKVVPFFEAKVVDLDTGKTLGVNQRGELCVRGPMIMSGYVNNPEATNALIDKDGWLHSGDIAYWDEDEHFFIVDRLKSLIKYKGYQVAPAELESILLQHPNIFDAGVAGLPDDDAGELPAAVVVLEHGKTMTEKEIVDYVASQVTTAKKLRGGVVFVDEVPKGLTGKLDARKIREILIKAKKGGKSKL
# UniProt Q07343, whole entry: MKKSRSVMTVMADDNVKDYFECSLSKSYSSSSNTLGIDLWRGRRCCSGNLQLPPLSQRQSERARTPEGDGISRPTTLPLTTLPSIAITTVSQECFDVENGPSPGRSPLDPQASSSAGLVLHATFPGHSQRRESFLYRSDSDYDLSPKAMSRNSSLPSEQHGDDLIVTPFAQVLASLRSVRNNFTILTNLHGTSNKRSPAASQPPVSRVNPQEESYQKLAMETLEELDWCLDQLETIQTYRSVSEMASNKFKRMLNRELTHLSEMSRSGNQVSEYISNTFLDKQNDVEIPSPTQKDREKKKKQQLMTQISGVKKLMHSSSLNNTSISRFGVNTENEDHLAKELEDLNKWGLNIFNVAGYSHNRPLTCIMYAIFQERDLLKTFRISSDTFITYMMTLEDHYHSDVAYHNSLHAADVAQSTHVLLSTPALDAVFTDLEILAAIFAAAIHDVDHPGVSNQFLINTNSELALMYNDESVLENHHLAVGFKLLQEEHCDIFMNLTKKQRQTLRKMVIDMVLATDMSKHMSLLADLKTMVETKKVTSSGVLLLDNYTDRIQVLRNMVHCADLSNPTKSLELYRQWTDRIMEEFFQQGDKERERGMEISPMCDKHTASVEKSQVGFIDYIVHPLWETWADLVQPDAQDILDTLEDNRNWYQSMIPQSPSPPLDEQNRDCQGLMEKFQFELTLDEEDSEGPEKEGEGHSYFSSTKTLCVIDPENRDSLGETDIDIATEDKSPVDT
# This is a selection; strong and weak results do not stand in their true shares. Some results for these compounds are left out of this collection, so the calls shown say nothing about other tests. Inconclusive results are not listed. Activity calls are given as the source filed them. Unless noted, calls come from the whole dose curve; as a rule, active = well fitted curve in the direction sought with a large enough effect; inconclusive = small, poorly fitted or top-dose-only effect, or another doubt; inactive = no such curve, though single readings can be large; an effect the other way counts as inactive or inconclusive.
# What was measured:
# [1] = biological target: Calcium and integrin-binding protein 1 (Homo sapiens) (UniProt Q99828); assay: Primary qHTS for Identification of Calcium Integrin Binding Protein 1 (CIB1) Competitor (AID 1508620); conditions: CIB1-GST / FITC-alphaIIb peptide fluorescence polarization; at 114 µM (top of the series);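 note: GST tagged CIB1 binding a fluorescein labelled alphaIIb integrin peptide tracer; top concentration of the series differs between compounds; % is set by controls: 0 for no effect and ±100 for the full control effect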
# Method in brief: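 CIB1-GST (1 uM final) and compound incubated 15 min at room temperature before adding FITC-alphaIIb peptide tracer (100 nM final). Competition for binding read by fluorescence polarization (ex 480, em 540) after another 15 min at room temperature.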
# [2] = biological target: Ubiquitin carboxyl-terminal hydrolase 1 (Homo sapiens) (UniProt O94782); assay: Inhibitors of USP1/UAF1: Pilot qHTS (AID 504865); conditions: purified USP1/UAF1, Ub-rhodamine cleavage fluorescence; at 114 µM (top of the series);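 note: rhodamine fluorescence freed from ubiquitin-rhodamine substrate followed over time; top concentration of the series differs between compounds; % is set by controls: 0 for no effect and ±100 for the full control effect; nearly all actives have a fitted effect of over 35% in size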
# [3] = biological target: Luciferin 4-monooxygenase (Photinus pyralis) (UniProt P08659); assay: Biochemical firefly luciferase enzyme assay for NPC (AID 624030);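 note: purified P. pyralis luciferase at 10 nM with luciferin and ATP substrate; 0% = DMSO and -100% = full luciferase inhibition by PTC124 control; nearly all actives have a fitted effect of over 70% in size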; conditions: purified P. pyralis luciferase, luminescence, 5 min; at 58.6 µM (top of the series)
# Method in brief: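 Direct inhibition of firefly luciferase enzyme (10 nM final, 50 mM Tris Acetate) assessed by luminescence within 5 minutes. Percent activity scaled between DMSO and PTC124 positive control, with concentration-effect curves classified by fit quality and response.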
# [4] = S16 Schwann cell viability assay (CellTiter-Glo assay) (AID 624031); conditions: S16 rat Schwann cells viability, 24 h; at 57.5 µM (top of the series);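 note: native untransfected S16 rat Schwann cells; cellular ATP luminescence as a viability measure; plate controls were DMSO-treated cells for no effect and cell-free wells for full effect; nearly all actives have a fitted effect of over 70% in size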
# Method in brief: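 Rat S16 Schwann cells without reporter constructs received compound or DMSO for 24 h at 37 °C under 5% CO2. Cellular ATP was then quantified by CellTiter-Glo luminescence, with vehicle wells defined as 0% activity and cell-free wells as reference.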
# [5] = S16 Schwann cell PMP22 intronic element firefly luciferase assay (AID 624032); conditions: S16 rat Schwann cells, PMP22 element FLuc, 24 h; at 57.5 µM (top of the series);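 note: plate controls were DMSO for no effect and PTC124 positive control mean for full effect; nearly all actives have a fitted effect of over 30% in size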
# [6] = qHTS Assay for Identifying Gametocytocidal Compounds (AID 743244);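 note: % is set by controls: 0 for no effect and ±100 for the full control effect; actives lower the fluorescent signal which means gametocytes are killed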; conditions: P. falciparum 3D7 stage III-V gametocytes, alamarBlue, 72 h; hits give low values
# [7] = qHTS assay to identify small molecule inhibitors of chordoma cells - UCH-2 (AID 1259356); conditions: UCH-2 chordoma viability, CellTiter-Glo ATP luminescence, 48 h; at 46.1 µM (top of the series); note: % is set by controls: 0 for no effect and ±100 for the full control effect
# [8] = P-glycoprotein substrates identified in KB-8-5-11 adenocarcinoma cell line, qHTS therapeutic library screen (AID 1346987); conditions: KB-8-5-11 (P-gp overexpressing) viability, CellTiter-Glo, 72 h; at 44.5 µM (top of the series); note: % is set by controls: 0 for no effect and ±100 for the full control effect; nearly all actives have a fitted effect of over 65% in size
# Method in brief: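 Compounds are pinned in dose-response onto KB-8-5-11 cells (500 cells/well, colchicine-free medium) and left 72 h at 37 degree C. CellTiter-Glo luminescence then yields AC50 values.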
# KB-3-1 = assay: Cytotoxic Profiling of Annotated Libraries Using Quantitative High-Throughput Screening (AID 1296008); conditions: Five cell lines viability, CellTiter-Glo ATP luminescence, 48-72 h, hits give low values; note: % is set by controls: 0 for no effect and ±100 for the full control effect; nearly all actives have a fitted effect of over 60% in size
# Method in brief: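 Cytotoxicity was measured as CellTiter-Glo ATP luminescence, read after 10 min at room temperature. Compound treatment of the cells lasted 48 or 72 hr at 37 degrees Celsius in a qHTS format.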
# astro = assay: Drug repurposing screens with cells derived from glioblastoma tumor samples (AID 1345199); conditions: viability, ATP luminescence, 48 h; at 45.9 µM (top of the series); note: % is set by controls: 0 for no effect and ±100 for the full control effect; nearly all actives have a fitted effect of over 40% in size
# Method in brief: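 Primary testing used CD133+ neurospheres from four GBM patients, seven concentrations, 48 h exposure and ATP-based viability; confirmation added three slower-growing patient lines.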
# [9] = AP1 Signaling Pathway (AID 357; active = well fitted curve in either direction with a large enough effect, not every such curve was filed as active; note: % is set by controls: 0 for no effect and ±100 for the full control effect); conditions: ME-180 AP-1-bla reporter, EGF-induced, beta-lactamase ratio, 5 h; at 7.69 µM (top of the series)
# Method in brief: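 ME-180 cells with beta-lactamase reporter under AP-1 response element, stimulated with EC50 EGF; compounds tested in titration series, 5 h at 37 °C. CCF4 substrate added 2.5 h at room temperature; 460/530 nm emission ratio gave %activity and AC50.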
# [10] = Stat Signaling Pathway (AID 446; active = well fitted curve in either direction with a large enough effect, not every such curve was filed as active;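 note: ME-180 cervical cancer cells given 40 pM IL-6 alongside compound; SIE-controlled beta-lactamase reporter measured as 460/530 nm FRET emission ratio; % is set by controls: 0 for no effect and ±100 for the full control effect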); conditions: ME-180 SIE beta-lactamase reporter, IL-6 stimulated, 5 h; at 7.69 µM (top of the series)
# Method in brief: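 Normalization used AC90 stimulation (300 pM IL-6) and AC90 inhibition (125 nM pan-JAK inhibitor at 40 pM IL-6). The underlying signal is SIE-driven beta-lactamase in ME-180 cells after 5 h IL-6 exposure with compound.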
# [11] = biological target: Mitogen-activated protein kinase 10 (Mus musculus) (UniProt Q61831); assay: JNK3 AlphaScreen Assay (AID 530; active = well fitted curve in either direction with a large enough effect, not every such curve was filed as active); conditions: JNK3 lysate, c-Jun phosphorylation; at 11.4 µM (top of the series)
# Method in brief: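 qHTS titrations with 15 min compound pre-incubation before adding ATP (10 uM final). Read-out: AlphaScreen of Ser73-phosphorylated biotin-GST-cJun using HepG2 lysate JNK3 activated by IL-1β and TNFα.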
# [12] = biological target: 3',5'-cyclic-AMP phosphodiesterase 4B (Homo sapiens) (UniProt Q07343); assay: qHTS Assay for Inhibitors of PDE-IV (AID 607; active = well fitted activation curve with a large enough effect in the main read-out, with a control signal flat, not every such curve was filed as active; note: % of control where 0% means no effect); conditions: HEK293 ACTOne CNG channel cells, membrane potential fluorescence; at 22.9 µM (top of the series)
# Method in brief: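 HEK293 ACTOne cells with CNG channel (1000/well), endogenous PDE4; membrane potential dye, compounds up to 22.9 uM final. Fluorescence Ex 535/Em 590; RO 20-1724 (100 uM final) as reference.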
# [13] = qHTS Assay for Identification of Small Molecule Agonists for Hypoxia Response Element Signaling Pathway (AID 914; active = well fitted activation curve with a large enough effect in the signal ratio, with a control signal flat, not every such curve was filed as active; the % refers to the signal ratio; note: % of control where 0% means no effect); conditions: ME-180 (cervical carcinoma) HRE-bla reporter, beta-lactamase ratio, CoCl2, 17 h; hits give high values
# [14] = NFAT Signaling Pathway (AID 444; active = well fitted curve in either direction with a large enough effect, not every such curve was filed as active); conditions: Jurkat NFAT-bla M1, carbachol, beta-lactamase ratio, 5 h; at 7.69 µM (top of the series)
# Method in brief: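 Read-out: CCF4 FRET ratio (460 nm/530 nm) after 1 h RT dye loading, used for %activity and AC50 from titration series. Cells: Jurkat NFAT-β-lactamase/M1 line, treated with compound plus 1 uM carbachol for 5 h, 37 °C.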
compound,measurement,setting,value
O=C(C1CCC1)N1CCN(C/C=C/c2ccccc2)CC1,"activity change, negative = inhibition",[1],inactive: -1.88%
CN1CCCC(OC(=O)C(O)(c2ccccc2)c2ccccc2)C1 (stereo not given),"activity change, negative = inhibition",[2],inactive: -8.41%
same,"activity change, negative = inhibition",[3],inactive: 2.21%
same,"activity change, negative = cytotoxicity",[4],inactive: -29.1%
same,"activity change, negative = inhibition",[5],inactive: 13.2%
same,max response,[6],inactive: 16.4%
same,"activity change, negative = inhibition",[7],inactive: -24.5%
same,"activity change, negative = cytotoxicity",[8],inactive: 0.979%
same,max response,KB-3-1,inactive: -0.336%
same,"activity, negative = cell killing",astro,inactive: 0.657%
CN1CCC[C@H](OC(=O)[C@](O)(c2ccccc2)C2CCCC2)C1,"activity change, negative = inhibition",[9],inactive: -0.382%
same,"activity, negative = inhibition",[10],inactive: 9.02%
same,"activity change, negative = inhibition",[11],inactive: 1.6%
same,activation (PDE inhibition),[12],inactive: 6.14%
C=C(C)C#C[C@@](O)(C(=O)OC1CCN(C)CC1)c1ccccc1,"activity change, negative = inhibition",[9],inactive: -3.83%
same,"activity, negative = inhibition",[10],inactive: -1.24%
same,"activity change, negative = inhibition",[11],inactive: 2.03%
same,activation (PDE inhibition),[12],inactive: 1.58%
same,activation,[13],inactive: 8.7%
CN1CC[C@H](OC(=O)[C@](O)(c2ccccc2)C2CCCC2)C1,"activity change, negative = inhibition",[9],inactive: -3.01%
same,"activity change, negative = inhibition",[14],active: -80.9%
same,"activity, negative = inhibition",[10],inactive: 12.1%
same,"activity change, negative = inhibition",[11],inactive: 3.18%
same,activation (PDE inhibition),[12],inactive: 1.08%
same,activation,[13],inactive: 14.9%
